Results on 1 compound are retold here after patent US4659730A, “Aromatase inhibiting imidazole derivatives” (Eli Lilly and Company, priority 1984, dated 1987).

For the assay, the target named is T1, aromatase (Rattus norvegicus, UniProt P22443).
T1 sequence (P22443 1-508): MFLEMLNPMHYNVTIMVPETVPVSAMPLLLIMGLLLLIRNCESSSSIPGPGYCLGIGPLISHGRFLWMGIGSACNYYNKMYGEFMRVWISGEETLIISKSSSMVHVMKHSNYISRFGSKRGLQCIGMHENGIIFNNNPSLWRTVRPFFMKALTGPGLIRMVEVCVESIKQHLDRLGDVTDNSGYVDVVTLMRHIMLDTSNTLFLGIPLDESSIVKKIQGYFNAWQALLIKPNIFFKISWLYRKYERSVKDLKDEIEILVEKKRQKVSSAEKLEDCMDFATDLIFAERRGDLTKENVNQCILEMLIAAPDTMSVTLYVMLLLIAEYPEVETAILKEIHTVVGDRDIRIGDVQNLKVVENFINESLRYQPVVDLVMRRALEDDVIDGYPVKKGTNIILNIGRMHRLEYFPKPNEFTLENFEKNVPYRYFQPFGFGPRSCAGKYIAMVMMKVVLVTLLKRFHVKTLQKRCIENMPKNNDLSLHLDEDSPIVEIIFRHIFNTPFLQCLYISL
The assay is described as follows: biochemical. Particulars: rat ovarian microsomes; substrate (androstenedione) concentration 0.1 μM.

The structures appear in SMILES notation.

Compound `Clc1ccc2c(c1)C(n1ccnc1)CC2` (stereo not shown) [1-(6-chloro-2,3-dihydro-1H-inden-1-yl)-1H-imidazole nitrate] gave an EC50 of 0.21 µM.

One may read the EC50 as the midpoint of the concentration-response curve.
